Assay [1] in a line: Selectivity ratio of Ki for kappa opioid receptor to Ki for delta opioid receptor.
Assay [2] is described as follows: Selectivity ratio of Ki for mu opioid receptor to Ki for delta opioid receptor.

Structures are written as SMILES.

`CN1CC[C@]23c4c5ccc(O)c4O[C@H]2c2ncc(-c4ccc(Cl)cc4)cc2C[C@@]3(O)[C@H]1C5`: the values for the Ratio Ki in assay [1] and in assay [2] were 120 and 59, respectively.

Turning to `Oc1ccc2c3c1O[C@H]1c4ncc(-c5ccc(Cl)cc5)cc4C[C@@]4(O)[C@@H](C2)N(CC2CC2)CC[C@]314`, the Ratio Ki in assay [1] is 9; in assay [2], 23.

Values taken from ChEMBL document CHEMBL2177065, “14-Alkoxy- and 14-acyloxypyridomorphinans: μ agonist/δ antagonist opioid analgesics with diminished tolerance and dependence side effects” (J Med Chem, 2012).
